Measured values as given in patent US5994629A, “Positive selection” (priority 1991, dated 1999).

Assays:
tobacco leaf discs [1] = experiment: Inhibition by SL of shoot formation induced by BA and BA3GN sodium salt; type: cell-based; details: BA 0.5 mg/l, BA3GN sodium salt 15 mg/l
[2] = tested on: tobacco leaf discs co-cultivated with Agrobacterium; experiment: Positive selection combined with negative selection; type: cell-based; details: kanamycin 300 mg/l; BA 1 mg/l or BA3GN sodium salt 15 mg/l
Text: In addition, the experiment included selection using BA3GN sodium salt together with saccharo 1,4-lactone (SL) (a strong specific inhibitor of the introduced β-glucuronidase).
The methods used were essentially as described below in Example 13, but Gamborg B5 substrate was used instead of MSO substrate.
The experiment with BA together with kanamycin, which is the traditional negative selection system, was repeated as two independent experiments with 54 leaf discs per experiment. A single GUS-positive shoot was detected among a total of 23 selected shoots. The results for BA3GN sodium salt were obtained using 324 leaf discs. The experiment with SL (saccharo 1,4-lactone) was performed once with a total of 162 leaf discs.

[3] = tested on: wild type (GUS-) tobacco leaf discs; experiment: Selective inhibition of BA3GN induced shoot formation; type: cell-based, tobacco variety 'Burley'; details: for Shoots per leaf disc, BA substrate: BA 1 mg/l; for Shoots per leaf disc, BA3GN substrate: BA3GN 15 mg/l
[4] = tested on: native GUS activity in non-transformed tobacco leaf discs; experiment: Test of inhibitors in X-gluc assay at pH 5.0; type: cell-based; details: for X-gluc reaction with inhibitor: pH 5.0, 20 hours; for inhibition of native GUS activity, in words: pH 5.0, X-gluc assay
tobacco leaf discs [5] = tested on: tobacco leaf discs
tobacco leaf discs [6] = experiment: Effect of opines on shoot formation in substrates without nitrogen; type: cell-based; details: for number of shoots per 9 leaf discs: substrate without nitrogen, 1 mg/l BA; for function as nitrogen source, in words: substrate without other nitrogen

c1ccc(CNc2ncnc3nc[nH]c23)cc1 [BA, N^6 -benzyladenine]
Number of regenerated shoots per leaf disc (tobacco leaf discs [1]; SL 0 mM): 4.3 | relative number of regenerated shoots per leaf disc (tobacco leaf discs [1]; SL 0 mM): 100% | Number of regenerated shoots per leaf disc (tobacco leaf discs [1]; SL 16 mM): 3.6 | relative number of regenerated shoots per leaf disc (tobacco leaf discs [1]; SL 16 mM): 84% | GUS+ shoots among total shoots, % [2]: 4.3% | GUS+ shoots among total shoots, compared to BA + Kanamycin [2]: 1 x | GUS+ shoots per leaf disc, No. [2]: 0.01 | GUS+ shoots per leaf disc, compared to BA + Kanamycin [2]: 1 x | Shoots per leaf disc ([3]; BA 1 mg/l or BA3GN 15 mg/l alone (additive 0 mg/l)): 1.00

O=C(O)CN(CCN(CC(=O)O)CC(=O)O)CC(=O)O [EDTA]
X-gluc reaction with inhibitor ([4]; 0.1 mM): + | X-gluc reaction with inhibitor ([4]; 1 mM): + | X-gluc reaction with inhibitor ([4]; 10 mM): + | X-gluc reaction with inhibitor ([4]; 50 mM): + | inhibition of native GUS activity, in words [4]: no effect

OC[C@H]1OC(O)[C@H](O)[C@@H](O)[C@H]1O (some centres unmarked) [Galactose]
X-gluc reaction with inhibitor ([4]; 0.1 mM): + | X-gluc reaction with inhibitor ([4]; 1 mM): + | X-gluc reaction with inhibitor ([4]; 10 mM): + | X-gluc reaction with inhibitor ([4]; 50 mM): +

O=C1O[C@H](CO)[C@@H](O)[C@H](O)[C@H]1O [Gluconolactone]
X-gluc reaction with inhibitor ([4]; 0.1 mM): + | X-gluc reaction with inhibitor ([4]; 1 mM): + | X-gluc reaction with inhibitor ([4]; 10 mM): + | X-gluc reaction with inhibitor ([4]; 50 mM): + | inhibition of native GUS activity, in words [4]: no inhibiting effect

O=C(O)[C@H]1OC(O)[C@H](O)[C@@H](O)[C@@H]1O (some centres unmarked) [Glucuronic acid]
X-gluc reaction with inhibitor ([4]; 0.1 mM): + | X-gluc reaction with inhibitor ([4]; 1 mM): + | X-gluc reaction with inhibitor ([4]; 10 mM): 0 | X-gluc reaction with inhibitor ([4]; 50 mM): 0 | inhibition of native GUS activity, in words [4]: medium strength inhibitor | Ratio BA/BA3GN ([3]; additive 1000 mg/l): 4.1 | Shoots per leaf disc, BA substrate ([3]; additive 1000 mg/l): 0.33 | Shoots per leaf disc, BA3GN substrate ([3]; additive 1000 mg/l): 0.08 | Shoots per leaf disc, BA substrate ([3]; additive 3300 mg/l): 0.83 | Shoots per leaf disc, BA3GN substrate ([3]; additive 3300 mg/l): 0 | Shoots per leaf disc, BA substrate ([3]; additive 10,000 mg/l): 0.42 | Shoots per leaf disc, BA3GN substrate ([3]; additive 10,000 mg/l): 0

O=C(O)Cc1c[nH]c2ccccc12 [IAA, indole acetic acid]
factor by which the effect on callus growth is increased (tobacco leaf discs [5]; metabolism of the compound inhibited): 5-100

NC(=O)CC[C@H](NC[C@@H](O)[C@@H](O)[C@H](O)[C@H](O)CO)C(=O)O [Mannopine]
number of shoots per 9 leaf discs (tobacco leaf discs [6]; 10 mM): > 50 | number of shoots per 9 leaf discs (tobacco leaf discs [6]; 20 mM): > 50 | number of shoots per 9 leaf discs (tobacco leaf discs [6]; 40 mM): > 50 | number of shoots per 9 leaf discs (tobacco leaf discs [6]; 80 mM): > 50 | function as nitrogen source, in words (tobacco leaf discs [6]): can function as a good nitrogen source

CO[C@@H]1O[C@H](C(=O)O)[C@@H](O)[C@H](O)[C@H]1O [Methyl-β-glucuronide, Methyl-β-D-glucuronide]
Ratio BA/BA3GN ([3]; additive 1000 mg/l): 1.9 | Shoots per leaf disc, BA substrate ([3]; additive 1000 mg/l): 1.91 | Shoots per leaf disc, BA3GN substrate ([3]; additive 1000 mg/l): 1.00 | Shoots per leaf disc, BA substrate ([3]; additive 3300 mg/l): 2.25 | Shoots per leaf disc, BA3GN substrate ([3]; additive 3300 mg/l): 0

Cc1cc(=O)oc2cc(O[C@@H]3O[C@H](C(=O)O)[C@@H](O)[C@H](O)[C@H]3O)ccc12 [Methylumbellipheryl glucuronide]
X-gluc reaction with inhibitor ([4]; 0.1 mM): + | X-gluc reaction with inhibitor ([4]; 1 mM): + | X-gluc reaction with inhibitor ([4]; 10 mM): + | X-gluc reaction with inhibitor ([4]; 50 mM): 0 | inhibition of native GUS activity, in words [4]: weak inhibitor

N=C(N)NCCCC(NC(CCC(=O)O)C(=O)O)C(=O)O (centres unmarked) [Nopaline]
number of shoots per 9 leaf discs (tobacco leaf discs [6]; 10 mM): 18 | number of shoots per 9 leaf discs (tobacco leaf discs [6]; 20 mM): 19 | number of shoots per 9 leaf discs (tobacco leaf discs [6]; 40 mM): 11 | number of shoots per 9 leaf discs (tobacco leaf discs [6]; 80 mM): 8 | function as nitrogen source, in words (tobacco leaf discs [6]): cannot support shoot formation

CC(NC(CCCNC(=N)N)C(=O)O)C(=O)O (centres unmarked) [Octopine]
number of shoots per 9 leaf discs (tobacco leaf discs [6]; 10 mM): 11 | number of shoots per 9 leaf discs (tobacco leaf discs [6]; 20 mM): 15 | number of shoots per 9 leaf discs (tobacco leaf discs [6]; 40 mM): 15 | number of shoots per 9 leaf discs (tobacco leaf discs [6]; 80 mM): 7 | function as nitrogen source, in words (tobacco leaf discs [6]): cannot support shoot formation

O=C(O)[C@@H](O)[C@H]1OC(=O)[C@H](O)[C@H]1O [Saccharo 1,4-lactone]
X-gluc reaction with inhibitor ([4]; 0.1 mM): + | X-gluc reaction with inhibitor ([4]; 1 mM): 0 | X-gluc reaction with inhibitor ([4]; 10 mM): 0 | X-gluc reaction with inhibitor ([4]; 50 mM): 0 | inhibition of native GUS activity, in words [4]: strong inhibitor

O=C(O)[C@H]1O[C@H](OP(=O)(O)OP(=O)(O)OC[C@H]2O[C@@H](n3ccc(=O)[nH]c3=O)[C@H](O)[C@@H]2O)[C@H](O)[C@@H](O)[C@@H]1O [UDP-glucuronide]
X-gluc reaction with inhibitor ([4]; 0.1 mM): + | X-gluc reaction with inhibitor ([4]; 1 mM): + | X-gluc reaction with inhibitor ([4]; 10 mM): + | X-gluc reaction with inhibitor ([4]; 50 mM): +

C/C(=C\CNc1ncnc2[nH]cnc12)CO [Zeatin]
factor by which the optimal shoot inducing concentration is lowered (tobacco leaf discs [5]; glycosylation of zeatin inhibited): 5-100
